Test results as given in article PMC6592956, “Characterization of Porcine Hepatic and Intestinal Drug Metabolizing CYP450: Comparison with Human Orthologues from A Quantitative, Activity and Selectivity Perspective” (Scientific Reports, 2019).
Values joined by “and” are separate entries in the source; they are usually repeats but may differ in a detail not shown here. Equal entries are not always repeated.

Legend:
porcine hepatic CYP450 [1] = experiment: Incubation with inhibitors: statements on all investigated reactions in porcine hepatic microsomes; assay type: in vitro ADME, conventional pig; settings: for Inhibition of any of the investigated reactions: also at 10 times the concentration of the methods section
[2] = system: porcine hepatic CYP450 enzymes; experiment: Stepwise multiple linear regression of probe activity on CYP450 protein concentrations and on other metabolites
[3] = system: porcine hepatic CYP450 enzymes; settings: for Porcine Vmax: 8 males, 8 females, 12 weeks, 3 replicates each
porcine hepatic CYP450 [4] = system: porcine hepatic CYP450
[5] = system: porcine hepatic CYP450 enzymes; experiment: in vitro; settings: both, hybrid sow × Piétrain boar cross (conventional pig)
CYP2C [6] = settings: Tolbutamide 200 µM, inhibitor NA, replicates 1-3
CYP2C [7] = system: CYP2C
human CYP450 = settings: ref [86]–[88]; cited from earlier work
[8] = Dependent Variable: OH_CM, Concentration 2, with metabolites, Model 2, predictors PAR_s, OH_TB_s
[9] = Dependent Variable: OH_CZ, Concentration 6, with metabolites, Model 1, predictor OH_TB_s
[10] = Dependent Variable: OH_CZ, Concentration 6, with metabolites, Model 2, predictors OH_TB_s, OH_MDZ_s
[11] = porcine hepatic microsomes, mean (SD)
[12] = Dependent Variable: OH_CM, Concentration 6, with metabolites, Model 2, predictors PAR_s, OH_CZ_s
[13] = dependent DEX, Concentration 2, with metabolites, model 1
[14] = dependent DEX, Concentration 6, with enzymes, model 2
[15] = dependent OH_MDZ, Concentration 2, with metabolites, model 2, predictor PAR_s

## Nc1ccc(S(=O)(=O)Nc2ccnn2-c2ccccc2)cc1 [Sulphaphenazole, sulphaphenazole]
Porcine hepatic CYP450 [1]
  Inhibition of any of the investigated reactions: did not inhibit any of the investigated reactions

## CCCCNC(=O)NS(=O)(=O)c1ccc(CO)cc1 [OH_TB_s]
[2]; [8]
  Unstandardized Coefficients B: -11,935
[2]; [9]
  Unstandardized Coefficients B: 134,028
[2]; [10]
  Unstandardized Coefficients B: 89,207

## O=c1ccc2ccccc2o1 [CM, coumarin]
[2]; Conc Level 2 (Table 1)
  Enzymes selected by regression analysis: CYP2A19
  Metabolites selected by regression analysis: PAR OH-CZ
[2]; Conc Level 6 (Table 1)
  Enzymes selected by regression analysis: CYP2A19
  Metabolites selected by regression analysis: PAR
[3]; [11]
  Porcine Vmax: 303 (119.2) pmol/min/mg protein
Porcine hepatic CYP450 [4]
  inhibition: < 20%
[5]
  Km: 1.3 µM

## O=c1cc(-c2ccccc2)oc2c1ccc1ccccc12 [α-naphthoflavone]
Porcine hepatic CYP450 [1]; inhibitor 0.1 µM (around Ki for human CYP1A2)
  Inhibition of any reaction: did not inhibit any reaction

## Cc1ncc2n1-c1ccc(Cl)cc1C(c1ccccc1F)=NC2 [MDZ, Midazolam]
[3]; pig versus human, ref [48]
  MDZ-hydroxylation rate, times lower compared to humans: 2 to 3 times
[3]; [11]
  Porcine Hill coefficient: 1.23 (0.089)
  Porcine Vmax: 1848 (637) pmol/min/mg protein
[5]
  Km: 15.3 µM
CYP2E; microsomes
  Inhibition of / influence on CZ-hydroxylation by co-incubated substrate: increased rate

## CCN(CC)C(=S)S [Diethyldithiocarbamate, diethyldithiocarbamate]
Porcine hepatic CYP450 [1]; inhibitor concentration increased above 20 µM
  Decrease of all reactions: > 40%

## CCCCNC(=O)NS(=O)(=O)c1ccc(C)cc1 [TB, tolbutamide]
[3]; pig versus human, ref [76]
  Affinity, times lower than in humans: 5 to 10 times
[3]; [11]
  Porcine Vmax: 269 (182.1) pmol/min/mg protein
Porcine hepatic CYP450 [4]
  inhibition: < 20%
[5]; hepatic microsomes
  Km: 2080 µM
CYP2C [6]
  Activity, incubation with inhibitors: 16.69 pmol/min/mg protein and 16.51 pmol/min/mg protein and 14.42 pmol/min/mg protein

## COc1ccc2c(c1)[C@]13CCCC[C@@H]1[C@H](C2)N(C)CC3 [DXM, Dextromethorphan]
CYP2A
  Ratio of reaction rate dual substrates versus single substrate, CM reaction: 0.86 (0.106)
CYP2C [7]
  Ratio of reaction rate dual substrates versus single substrate, TB reaction: 0.82 (0.153)
CYP2C [7]; hybrid sow × Piétrain boar cross (conventional pig), pig
  Activity, double substrate incubation for Dextromethorphan (different microsome pool batch): 12.21 pmol/min/mg protein
CYP1A
  Ratio of reaction rate dual substrates versus single substrate, PH reaction: 0.82 (0.082)
[2]; Conc Level 2 (Table 1)
  Enzymes selected by regression analysis: CYP2C33 CYP3A46 CYP1A2
  Metabolites selected by regression analysis: OH-TB
[2]; Conc Level 6 (Table 1)
  Enzymes selected by regression analysis: CYP3A46 CYP1A2
  Metabolites selected by regression analysis: OH-MDZ
[3]; pig versus human
  O-demethylation, times faster in pigs than in humans: up to 7 times
[3]; [11]
  Porcine Vmax: 1592 (480.7) pmol/min/mg protein
Porcine hepatic CYP450 [4]
  inhibition: < 20%
[5]
  Km: 6.7 µM
Human CYP450
  Human rate of DXM-O-demethylation: 18.0–233 pmol/min/mg protein
CYP2E
  Ratio of reaction rate dual substrates versus single substrate, CZ reaction: 0.95 (0.050)

## C=C[C@H]1C[N@@]2CC[C@H]1C[C@@H]2[C@@H](O)c1ccnc2ccc(OC)cc12 [Quinidine, quinidine]
Porcine hepatic CYP450 [1]
  Inhibition of any of the investigated reactions: did not inhibit any of the investigated reactions

## O=c1[nH]c2cc(Cl)c(O)cc2o1 [OH_CZ_s]
[2]; [12]
  Unstandardized Coefficients B: -85,873

## O=c1ccc2ccc(O)cc2o1 [OH_CM]
[2]; Dependent Variable: OH_CM, Concentration 2, with enzymes, Model 1, predictor CYP2A19_s
  Unstandardized Coefficients B, (Constant): 84,249
[2]; Dependent Variable: OH_CM, Concentration 2, with enzymes, Model 2, predictors CYP2A19_s, CYP2C33_s
  Unstandardized Coefficients B, (Constant): 84,249
[2]; Dependent Variable: OH_CM, Concentration 2, with metabolites, Model 1, predictor PAR_s
  Unstandardized Coefficients B, (Constant): 84,249
[2]; [8]
  Unstandardized Coefficients B, (Constant): 84,249
[2]; Dependent Variable: OH_CM, Concentration 6, with enzymes, Model 1, predictor CYP2A19_s
  Unstandardized Coefficients B, (Constant): 302,082
[2]; Dependent Variable: OH_CM, Concentration 6, with metabolites, Model 1, predictor PAR_s
  Unstandardized Coefficients B, (Constant): 302,082
[2]; [12]
  Unstandardized Coefficients B, (Constant): 302,082

## CN1CC[C@@]23CCCC[C@@H]2[C@@H]1Cc1ccc(O)cc13 [DEX]
[2]; dependent DEX, Concentration 2, with enzymes, model 1, (Constant)
  Unstandardized Coefficients B: 188,676
[2]; dependent DEX, Concentration 2, with enzymes, model 1, predictor CYP2C33_s
  Unstandardized Coefficients B: 58,821
[2]; dependent DEX, Concentration 2, with enzymes, model 2, (Constant)
  Unstandardized Coefficients B: 188,676
[2]; dependent DEX, Concentration 2, with enzymes, model 2, predictor CYP2C33_s
  Unstandardized Coefficients B: 38,307
[2]; dependent DEX, Concentration 2, with enzymes, model 2, predictor CYP3A46_s
  Unstandardized Coefficients B: 38,167
[2]; [13]
  Unstandardized Coefficient B, (Constant): 188,676
  Unstandardized Coefficient B, OH_TB_s: 53,633
[2]; dependent DEX, Concentration 6, with enzymes, model 1
  Unstandardized Coefficient B, CYP3A46_s: 374,350
[2]; [14]
  Unstandardized Coefficient B, CYP2C33_s: 189,717
  Unstandardized Coefficient B, CYP3A46_s: 272,379
[2]; dependent DEX, Concentration 6, with metabolites, model 1
  Unstandardized Coefficient B, OH_MDZ_s: 307,305

## O=c1[nH]c2cc(Cl)c(O)cc2o1 [OH_CZ]
[2]; Dependent Variable: OH_CZ, Concentration 2, with enzymes, Model 1, predictor CYP3A46_s
  Unstandardized Coefficients B, (Constant): 80,093
[2]; Dependent Variable: OH_CZ, Concentration 2, with enzymes, Model 2, predictors CYP3A46_s, CYP2C33_s
  Unstandardized Coefficients B, (Constant): 80,093
[2]; Dependent Variable: OH_CZ, Concentration 2, with metabolites, Model 1, predictor PAR_s
  Unstandardized Coefficients B, (Constant): 80,093
[2]; Dependent Variable: OH_CZ, Concentration 6, with enzymes, Model 1, predictor CYP2E1_s
  Unstandardized Coefficients B, (Constant): 595,976
[2]; Dependent Variable: OH_CZ, Concentration 6, with enzymes, Model 2, predictors CYP2E1_s, CYP2A19_s
  Unstandardized Coefficients B, (Constant): 595,976
[2]; Dependent Variable: OH_CZ, Concentration 6, with enzymes, Model 3, predictors CYP2E1_s, CYP2A19_s, CYP2C49_s
  Unstandardized Coefficients B, (Constant): 595,976
[2]; [9]
  Unstandardized Coefficients B, (Constant): 595,976
[2]; [10]
  Unstandardized Coefficients B, (Constant): 595,976

## OCc1ncc2n1-c1ccc(Cl)cc1C(c1ccccc1F)=NC2 [OH_MDZ]
[2]; dependent OH_MDZ, Concentration 2, with enzymes, model 1, (Constant)
  Unstandardized Coefficients B: 134,521
[2]; dependent OH_MDZ, Concentration 2, with enzymes, model 1, predictor CYP3A22_s
  Unstandardized Coefficients B: 26,246
[2]; dependent OH_MDZ, Concentration 2, with enzymes, model 2, (Constant)
  Unstandardized Coefficients B: 134,521
[2]; dependent OH_MDZ, Concentration 2, with enzymes, model 2, predictor CYP2E1_s
  Unstandardized Coefficients B: -19,603
[2]; dependent OH_MDZ, Concentration 2, with enzymes, model 2, predictor CYP3A22_s
  Unstandardized Coefficients B: 38,497
[2]; dependent OH_MDZ, Concentration 2, with metabolites, model 1, (Constant)
  Unstandardized Coefficients B: 134,521
[2]; dependent OH_MDZ, Concentration 2, with metabolites, model 1, predictor PAR_s
  Unstandardized Coefficients B: 23,539
[2]; dependent OH_MDZ, Concentration 2, with metabolites, model 2, (Constant)
  Unstandardized Coefficients B: 134,521
[2]; dependent OH_MDZ, Concentration 2, with metabolites, model 2, predictor OH_CM_s
  Unstandardized Coefficients B: -42,509
[2]; [15]
  Standardized Coefficients Beta: 1,439
  Unstandardized Coefficients B: 61,260
[2]; dependent OH_MDZ, Concentration 6, with enzymes, model 1, predictor CYP3A46_s
  Unstandardized Coefficients B: 304,669
[2]; dependent OH_MDZ, Concentration 6, with enzymes, model 2, predictor CYP2C49_s
  Unstandardized Coefficients B: 164,727
[2]; dependent OH_MDZ, Concentration 6, with enzymes, model 2, predictor CYP3A46_s
  Unstandardized Coefficients B: 280,664
[2]; dependent OH_MDZ, Concentration 6, with metabolites, model 1, predictor PAR_s
  Unstandardized Coefficients B: 360,122
[2]; dependent OH_MDZ, Concentration 6, with metabolites, model 2, predictor OH_CZ_s
  Unstandardized Coefficients B: 217,711
[2]; dependent OH_MDZ, Concentration 6, with metabolites, model 2, predictor PAR_s
  Unstandardized Coefficients B: 218,144

## OCc1ncc2n1-c1ccc(Cl)cc1C(c1ccccc1F)=NC2 [OH_MDZ_s]
[2]; [10]
  Unstandardized Coefficients B: 73,483
